Test results as given in patent US20090007283A1, “Transgenic Rodents Selectively Expressing Human B1 Bradykinin Receptor Protein” (priority 2003, published 2009).

Target: T1, human B1 bradykinin receptor (human) (UniProt P46663)
T1 sequence (looked up): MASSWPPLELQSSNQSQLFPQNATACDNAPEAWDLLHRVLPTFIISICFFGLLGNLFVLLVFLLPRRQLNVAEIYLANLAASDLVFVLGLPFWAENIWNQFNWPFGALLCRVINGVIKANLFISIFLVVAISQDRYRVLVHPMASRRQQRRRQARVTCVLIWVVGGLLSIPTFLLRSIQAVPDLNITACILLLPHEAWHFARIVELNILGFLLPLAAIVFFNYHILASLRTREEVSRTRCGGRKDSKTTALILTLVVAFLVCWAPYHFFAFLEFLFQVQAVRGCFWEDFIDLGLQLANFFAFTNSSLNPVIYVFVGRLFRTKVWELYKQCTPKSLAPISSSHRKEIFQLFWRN
Test: cell-based or functional assay

EC50 of des-arg^10-kallidin, contraction of homozygous mouse fundus, Control (n = 2), Experiment #1: 19 nM | EC50 of des-arg^10-kallidin, contraction of homozygous mouse fundus, Control (n = 2), Experiment #2: 8.8 nM | EC50 of des-arg^10-kallidin, contraction of homozygous mouse fundus, Control (n = 4), combined with Experiment #1: 12 nM | EC50 of des-arg^10-kallidin, contraction of homozygous mouse fundus, in the presence of 30 nM Compound #1 (small-molecule human B1 antagonist) (n = 2), Experiment #2: 1140 nM | EC50 of des-arg^10-kallidin, contraction of homozygous mouse fundus, in the presence of 30 nM Compound #1 (small-molecule human B1 antagonist) (n = 4), combined with Experiment #1: 1450 nM | EC50 of des-arg^10-kallidin, contraction of homozygous mouse fundus, in the presence of 30 nM L-878365 (small-molecule human B1 antagonist) (n = 2), Experiment #1: 2090 nM | EC50 of des-arg^10-kallidin, contraction of homozygous mouse ileum, Control (n = 2), Experiment #2: 0.83 nM | EC50 of des-arg^10-kallidin, contraction of homozygous mouse ileum, Control (n = 4), combined with Experiment #1: 1.7 nM | EC50 of des-arg^10-kallidin, contraction of homozygous mouse ileum, in the presence of 30 nM Compound #1 (small-molecule human B1 antagonist) (n = 2), Experiment #2: 118 nM | EC50 of des-arg^10-kallidin, contraction of homozygous mouse ileum, in the presence of 30 nM Compound #1 (small-molecule human B1 antagonist) (n = 4), combined with Experiment #1: 5940 nM | EC50 of des-arg^10-kallidin, contraction of homozygous mouse ileum, in the presence of 30 nM L-878365 (small-molecule human B1 antagonist) (n = 2), Experiment #1: 1080 nM
Substance: des-Arg^10 kallidin (from UniProt P01042 380-388) (peptide)
